The chains behind the UniProt entries cited, without tags or fusion partners. Residues count along the entry.
UniProt P07339, 65-162 limits assumed: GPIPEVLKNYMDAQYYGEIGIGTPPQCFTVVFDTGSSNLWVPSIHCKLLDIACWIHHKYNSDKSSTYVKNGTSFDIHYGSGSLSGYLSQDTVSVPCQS
UniProt P07339, 169-412 limits assumed: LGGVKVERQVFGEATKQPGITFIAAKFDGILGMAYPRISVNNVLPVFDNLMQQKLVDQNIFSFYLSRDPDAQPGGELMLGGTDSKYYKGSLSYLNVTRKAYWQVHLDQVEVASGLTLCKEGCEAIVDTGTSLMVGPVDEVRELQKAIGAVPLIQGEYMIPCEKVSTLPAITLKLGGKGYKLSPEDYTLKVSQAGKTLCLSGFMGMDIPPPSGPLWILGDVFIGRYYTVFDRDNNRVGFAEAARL

In ChEMBL document CHEMBL3813591, “Tasiamide F, a potent inhibitor of cathepsins D and E from a marine cyanobacterium” (Bioorg Med Chem, 2016):

Biological target: Cathepsin D (Homo sapiens, UniProt P07339)
Experiment: Inhibition of human liver cathepsin D using Mca-Gly-Lys-Pro-Ile-Leu-Phe-Phe-Arg-Leu-Lys-(Dnp)-D-Arg-NH2 as substrate preincubated for 15 mins followed by substrate addition measured every 5 mins for 120 mins by fluorescence analysis

IC50: 0.05 µM
SMILES: COC(=O)[C@@H]1CCCN1C(=O)[C@@H](Cc1ccccc1)N(C)C(=O)[C@H](C)NC(=O)[C@H](CC(C)C)NC(=O)C[C@H](O)[C@H](Cc1ccccc1)NC(=O)[C@H](CCC(N)=O)N(C)C(=O)[C@@H](NC(=O)[C@H](C)O)C(C)C
